ChEMBL document CHEMBL5576078, “Discovery of a potent, orally available furopyridine derivative as a novel selective bromodomain and extra-terminal domain (BET)-first bromodomain (BD1) inhibitor” (Bioorg Med Chem Lett, 2024)

What was measured:
in vivo [1] = conditions: C57BL/6, mouse, po, 100 mg/kg
in vivo [2] = conditions: C57BL/6, mouse, po, 100 mg/kg; remark: listed apart in the source
in vivo [3] = conditions: C57BL/6, mouse, po, 30 mg/kg
in vivo [4] = conditions: C57BL/6, mouse, po, 100 mg/kg; remark: listed apart in the source
in vivo [5] = conditions: C57BL/6, mouse, po, 10 mg/kg
in vivo [6] = conditions: C57BL/6, mouse, po, 100 mg/kg; remark: listed apart in the source
in vivo [7] = conditions: C57BL/6, mouse, po, 30 mg/kg; remark: listed apart in the source
in vivo [8] = conditions: C57BL/6, mouse, po, 30 mg/kg; remark: listed apart in the source
in vivo [9] = conditions: C57BL/6, mouse, po, 10 mg/kg; remark: listed apart in the source
in vivo [10] = conditions: C57BL/6, mouse, po, 30 mg/kg; remark: listed apart in the source
in vivo [11] = conditions: C57BL/6, mouse, po, 10 mg/kg; remark: listed apart in the source
in vivo [12] = conditions: C57BL/6, mouse, po, 10 mg/kg; remark: listed apart in the source
in vivo [13] = conditions: C57BL/6, mouse, po, 30 mg/kg; remark: listed apart in the source
in vivo [14] = conditions: C57BL/6, mouse, po, 10 mg/kg; remark: listed apart in the source
in vivo [15] = conditions: C57BL/6, mouse, po, 100 mg/kg; remark: listed apart in the source

C[C@@H]1CN(S(C)(=O)=O)CCN1Cc1cc2c(=O)n(C)cc(-c3ccn(C)n3)c2o1
half-life (in vivo [1]): 1.98 h | Cmax (in vivo [2]): 11 µg/mL | AUC(0-t) (in vivo [3]): 2.69 µg·h/mL | AUC(0-inf) (in vivo [4]): 19.2 µg·h/mL | half-life (in vivo [5]): 1.05 h | AUC(0-t) (in vivo [6]): 18.7 µg·h/mL | Cmax (in vivo [7]): 1.4 µg/mL | Tmax (in vivo [8]): 0.83 h | AUC(0-t) (in vivo [9]): 0.934 µg·h/mL | half-life (in vivo [10]): 1.27 h | Tmax (in vivo [11]): 1.33 h | AUC(0-inf) (in vivo [12]): 0.945 µg·h/mL | AUC(0-inf) (in vivo [13]): 2.75 µg·h/mL | Cmax (in vivo [14]): 0.383 µg/mL | Tmax (in vivo [15]): 0.5 h
